For test [1], the target named is biotinylated CD3 (UniProt P07766). In words: ELISA, biotinylated CD3 captured on neutravidin coated plates, HRP secondary antibody, OD 450 nm; PC treated with MTSP1.
Test [2] addresses biotinylated EGFR (UniProt P00533). As to the kind of experiment: ELISA, biotinylated EGFR captured on neutravidin plates; PC treated with MTSP1; PC-54 treated with MTSP1. (ELISA stands for enzyme-linked immunosorbent assay.)
Test [3] has the same target. In words: ELISA, biotinylated EGFR captured on neutravidin coated plates, HRP secondary antibody, OD 450 nm; PC treated with MTSP1.
For test [4], the target named is biotinylated CD3 (UniProt P07766). In words: ELISA, biotinylated CD3 captured on neutravidin coated plates, HRP secondary antibody, OD 450 nm; PC treated with MMP9.
Test [5] shares this target. As to the kind of experiment: ELISA, biotinylated CD3 captured on neutravidin plates; PC treated with MMP9.
Test [6] has as its target biotinylated EGFR (UniProt P00533). As to the kind of experiment: ELISA, biotinylated EGFR captured on neutravidin coated plates, HRP secondary antibody, OD 450 nm; PC treated with MMP9.
Test [7] shares this target. As to the kind of experiment: ELISA, biotinylated EGFR captured on neutravidin plates; PC treated with MMP9.
Test [8] deals with biotinylated CD3 (UniProt P07766). As to the kind of experiment: ELISA, biotinylated CD3 captured on neutravidin plates; PC treated with MTSP1.
Test [9] concerns the target biotinylated EGFR (UniProt P00533). In words: ELISA, biotinylated EGFR captured on neutravidin plates; PC treated with MTSP1.

What is called EC50 (read off the curve) is the concentration needed to bring the measured effect to its halfway point. A word on the EC50: it is the concentration needed to bring the measured effect to its halfway point. Low readings indicate greater potency, high ones weaker potency. As for “PC-54 + MTSP1 (bispecific antibody; other documents disagree on this pair)”, the EC50 (read off the curve) was 40 nM with biotinylated CD3 [1] and 0.3 nM in the test with biotinylated EGFR [3]. The EC50 with biotinylated EGFR [2] is 0.3 nM.

In the test with biotinylated CD3 [4], “PC-56 + MMP9 (bispecific antibody; other documents disagree on this pair)” came in with a concentration for a half-maximal effect (EC50 (read off the curve)) of 0.4 nM. In addition, the EC50 with biotinylated CD3 [5] was determined as 0.3 nM.

For “PC-54 + MMP9 (bispecific antibody; other documents disagree on this pair)”, the results for the EC50 (read off the curve) with biotinylated CD3 [4] and with biotinylated EGFR [6] were 8 nM and 0.4 nM, respectively. This substance yielded an EC50 with biotinylated EGFR [7] of 0.3 nM.

For “PC-56 + MTSP1 (bispecific antibody; other documents disagree on this pair)”, the EC50 (read off the curve) amounted to 0.5 nM in the test with biotinylated CD3 [1] and 0.3 nM with biotinylated EGFR [3]. Besides, the figures for the EC50 with biotinylated CD3 [8] and with biotinylated EGFR [9] were 0.5 nM and 0.3 nM, respectively.

For the origin of these results see US20260049140A1.
